Data set [1] in a line: aqueous stability testing, HPLC UV detection at different time points. To be noted: for degradation and precipitation in aqueous solution: pH range of about 4-5 over at least 4-6 h.
A short description of data set [2]: rat pharmacokinetic (PK) model, conversion of prodrug into MRX-I in blood. To be noted: after intravenous administration of Example 1.
Data set [3] is described as follows: aqueous solubility testing, HPLC quantitation with UV detection at 326 nm.
The mark [4] stands for this setting: D5W solution at pH 5 over 24 h at r.t., sodium salt form.

Structures are written as SMILES.

As for `CC(=O)OP(=O)(O)N(C[C@H]1CN(c2cc(F)c(N3C=CC(=O)CC3)c(F)c2F)C(=O)O1)c1ccon1`, in data set [1] (setting [4]), the degradation in solution result is given as “only minimal degradation” and the precipitation from solution result is on record as “without apparent precipitation”. In addition, in data set [1], the “degradation and precipitation in aqueous solution” value was “no significant degradation and precipitation”. Moreover, in data set [2], the “intermittent formation of Intermediate 3 in blood (LC-MS)” value was “detected”. The solubility entry in data set [3] (D5W at pH 5, sodium salt, no additives or excipients) is recorded as “about 400 mg/mL”.
Take `CCOC(=O)CCC(=O)OP(=O)(O)N(C[C@H]1CN(c2cc(F)c(N3C=CC(=O)CC3)c(F)c2F)C(=O)O1)c1ccon1`: the “degradation and precipitation in aqueous solution” value in data set [1] was “no significant degradation and precipitation”. For the same compound, the aqueous solubility result in data set [3] is reported as “at least 20 mg/mL”.

The values above are taken from patent US9382276B2, “Water-soluble O-carbonyl phosphoramidate prodrugs for therapeutic administration” (MicuRx Pharmaceuticals, Inc., priority 2014, dated 2016).
